The data set relates to EpiSC-derived OPCs. Put plainly: High-throughput screening of 3,000 bioactive small molecules for MBP+ oligodendrocyte formation from OPCs. The format is cell-based, mouse. As to conditions: 2 μM, 72 h.

Experimental findings from patent US20180228743A1, “COMPOUNDS AND METHODS OF PROMOTING MYELINATION” (Case Western Reserve University, priority 2016, published 2018) are described below.

On to `Cl.Clc1ccc(N2CCN(Cc3c[nH]c4ncccc34)CC2)cc1` [L-745,870 hydrochloride], for which the “cell viability (% relative to DMS0)” value came to 92.82%. In addition, the “fold-change in % MBP + oligodendrocytes” value (relative to DMSO controls of the same plate) amounted to 3.49.
